This note sets out measurements from patent publication US6818617B1 (Temple University- Of The Commonwealth System of Higher …, priority 1997, dated 2004).

Protein sequences, listed by entry. Tags and fused reporters are not part of them. Residues count along the entry.
UniProt P13612, 34-1032: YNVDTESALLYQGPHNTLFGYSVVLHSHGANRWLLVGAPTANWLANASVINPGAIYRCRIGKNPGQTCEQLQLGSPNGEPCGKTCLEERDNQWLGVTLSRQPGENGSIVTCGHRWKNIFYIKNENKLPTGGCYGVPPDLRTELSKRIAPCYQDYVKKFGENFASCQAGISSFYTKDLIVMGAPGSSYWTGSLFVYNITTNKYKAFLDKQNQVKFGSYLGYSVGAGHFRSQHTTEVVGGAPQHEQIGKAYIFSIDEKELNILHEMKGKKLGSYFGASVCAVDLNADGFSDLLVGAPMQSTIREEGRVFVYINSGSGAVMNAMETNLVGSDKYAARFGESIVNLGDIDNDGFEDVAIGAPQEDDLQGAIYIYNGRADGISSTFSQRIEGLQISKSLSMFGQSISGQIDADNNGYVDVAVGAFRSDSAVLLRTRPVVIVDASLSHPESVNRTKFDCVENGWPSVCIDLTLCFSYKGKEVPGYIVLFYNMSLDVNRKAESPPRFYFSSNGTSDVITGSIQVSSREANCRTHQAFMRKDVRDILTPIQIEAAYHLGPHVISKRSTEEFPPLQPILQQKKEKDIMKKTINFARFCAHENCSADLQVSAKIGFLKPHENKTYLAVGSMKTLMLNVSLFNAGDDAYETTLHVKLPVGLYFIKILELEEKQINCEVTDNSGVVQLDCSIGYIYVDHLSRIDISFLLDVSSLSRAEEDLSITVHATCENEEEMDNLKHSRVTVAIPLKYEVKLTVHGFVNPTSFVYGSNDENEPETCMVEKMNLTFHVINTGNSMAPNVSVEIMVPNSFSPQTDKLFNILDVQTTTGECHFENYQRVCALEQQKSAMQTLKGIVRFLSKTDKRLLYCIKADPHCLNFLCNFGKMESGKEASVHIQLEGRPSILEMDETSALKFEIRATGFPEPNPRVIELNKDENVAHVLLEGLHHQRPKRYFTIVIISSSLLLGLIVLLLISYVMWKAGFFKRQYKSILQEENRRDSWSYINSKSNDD

Structures are written as SMILES.

The target in the experiment is T1, α4β1 (Homo sapiens, UniProt P05556+P13612).
T1 construct: host or cells: Jurkat
Put plainly: Jurkat cell adhesion to immobilized VCAM-1. In kind it is cell-based. The protocol:
Adhesion of cultured cells labeled with 5-chloromethylfluorescein diacetate (CMFDA) was performed as described earlier (Marcinkiewicz et al., Blood 90:1565-1575 (1997)). […] Wells were blocked by 1% BSA in HBSS buffer. Cells were labeled with fluorescein by incubation with 12.5 AM CMFDA in HBSS buffer containing 1% BSA at 37° C. by 15 min. Unbound label was removed by washing with the same buffer. Labeled cells (1×10^5 per sample) were added to the well in the presence or absence of inhibitors and incubated at 37° C. for 30 min. Unbound cells were removed by aspiration, the wells were washed and bound cells were lysed by adding 0.5% Triton X-100. In parallel the standard curve was prepared in the same plate from known concentrations of labelled cells. The plate was read using a Cytofluor 2350 fluorescence plate reader (Millipore, Bedford, Mass.) at 485 nm EX(excitation) filter and 530 nm (emmision) filter.
The cell adhesion assay (as described in Example 1) was used to study the inhibitory effect of the eluted fractions on Jurkat cell adhesion to immobilized VCAM-1 and on K562 cell adhesion to fibronectin. […]
The effect of each peptide on cell adhesion was determined as described above. […] Cells that attached to the plates were lysed with detergent, and fluorescence intensity was measured. Percent inhibition was measured at each concentration and IC50 was determined.

For orientation: IC50 means the concentration that gives 50% inhibition.

On to `CSCC[C@H](N)C(=O)N[C@@H](CC(C)C)C(=O)N[C@@H](CC(=O)O)C(=O)NCC(=O)O` [MLDG], for which the IC50 turned out to be 5 mM.
